Some compounds may have been tested in ways that are not shown here.
Target: NEST (recombinant esterase domain of NTE) (Homo sapiens, UniProt Q8IY17)
Conditions: inhibitor added to phosphate buffer after steady phenyl valerate signal

The chains behind the UniProt entries cited, without tags or fusion partners. Residues count along the entry.
UniProt Q8IY17, 775-1264: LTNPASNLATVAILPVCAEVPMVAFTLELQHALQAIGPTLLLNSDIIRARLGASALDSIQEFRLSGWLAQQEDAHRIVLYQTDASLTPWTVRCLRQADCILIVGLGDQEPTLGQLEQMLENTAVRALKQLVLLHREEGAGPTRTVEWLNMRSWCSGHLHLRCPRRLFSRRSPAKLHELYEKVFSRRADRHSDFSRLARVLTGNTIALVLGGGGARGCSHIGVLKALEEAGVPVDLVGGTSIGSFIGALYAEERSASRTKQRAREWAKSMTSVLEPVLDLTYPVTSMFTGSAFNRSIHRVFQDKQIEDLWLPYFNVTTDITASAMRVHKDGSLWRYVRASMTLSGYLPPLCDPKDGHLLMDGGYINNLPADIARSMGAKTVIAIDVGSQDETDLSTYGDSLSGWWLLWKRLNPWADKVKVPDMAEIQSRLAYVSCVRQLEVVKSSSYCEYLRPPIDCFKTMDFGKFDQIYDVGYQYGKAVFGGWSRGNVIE

SMILES: CC(C)NP(=O)(F)NC(C)C
- drop in current after addition of NEST inhibitor (dose dependence): dose-dependent response

— patent publication US8623196B2 (priority 2007, dated 2014)
